Data on 1 substance can be found in article PMC12024540, “Peptide-Based Regulation of TNF-α-Mediated Cytotoxicity” (Biomolecules, 2025).

Chains of the proteins cited; added tags and fusions are not shown. Residues count along the entry.
UniProt P19438, 42-181: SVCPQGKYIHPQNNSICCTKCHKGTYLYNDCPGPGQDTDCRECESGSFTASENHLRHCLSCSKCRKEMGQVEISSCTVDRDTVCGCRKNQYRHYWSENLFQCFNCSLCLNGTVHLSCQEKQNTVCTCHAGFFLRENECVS

Broadly, the Kd is the equilibrium constant for the complex coming apart.

The target of the assay is Human TNFR1 (soluble) recombinant protein (human) (UniProt P19438). As to the kind of experiment: MST; labelled TNFR1 (RED-NHS 2nd Generation) at 1 nM, rhTNF-α titrated, PBS, Monolith NT.115 Pico.

Regarding “recombinant human tumor necrosis factor alpha (rhTNF-α) (ligand)”, the Kd stood at 4.94 nM.
